From patent publication US5886007A (priority 1997, dated 1999) come the findings set out here.

The chains behind the UniProt entries cited, without tags or fusion partners. Residues count along the entry.
UniProt Q9JKC1, 24-597 limits assumed: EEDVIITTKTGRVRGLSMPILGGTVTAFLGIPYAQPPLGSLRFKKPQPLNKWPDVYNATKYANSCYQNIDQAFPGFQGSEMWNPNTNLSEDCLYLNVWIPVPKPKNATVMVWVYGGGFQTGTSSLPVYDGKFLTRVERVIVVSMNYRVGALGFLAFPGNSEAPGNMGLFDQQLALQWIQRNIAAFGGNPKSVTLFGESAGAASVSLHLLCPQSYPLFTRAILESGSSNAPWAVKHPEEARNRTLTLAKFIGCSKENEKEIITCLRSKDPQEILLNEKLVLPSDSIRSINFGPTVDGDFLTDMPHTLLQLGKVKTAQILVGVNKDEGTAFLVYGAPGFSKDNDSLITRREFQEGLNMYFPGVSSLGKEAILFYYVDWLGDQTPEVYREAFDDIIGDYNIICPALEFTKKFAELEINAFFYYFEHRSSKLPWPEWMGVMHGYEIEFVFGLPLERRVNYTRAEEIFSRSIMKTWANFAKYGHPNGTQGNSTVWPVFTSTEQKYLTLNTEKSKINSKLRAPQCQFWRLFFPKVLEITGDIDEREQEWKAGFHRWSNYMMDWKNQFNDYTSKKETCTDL

The target of the assay is rat serum BChE (Rattus norvegicus, UniProt Q9JKC1). Briefly: Inhibition of rat serum BChE (spectrophotometric, butyrylthiocholine substrate). Type of assay: biochemical. Particulars: read-out: IC50 rat serum BChE, 10^-5 M BW284C51, compounds in salt form.

On to `c1ccc2c(NCCCCCCCCCNc3c4c(nc5ccccc35)CCCC4)c3c(nc2c1)CCCC3`, for which the concentration for half-maximal inhibition (IC50) (as a rule, the concentration that inhibits the measured activity by half) stood at 202 nM.
